# The list shows a part of the results, in another mix than the full data. Activity calls are given as the source filed them.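 Rule for the calls: active = inhibition above 3 SD of the buffer control wells (cut at about 41% in these data); inactive = the rest.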
# Experiment: reduced carbachol calcium response, RGS4-induced M3R cells, confirmation, RGS4 activator project, cell-based, HEK293 M3R/RGS4 inducible, calcium flux, duplicate (AID 602282);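 note: signal is the integrated peak-minus-minimum Fluo4 fluorescence over baseline ratio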
# Conditions: carbachol calcium flux Fluo4, at 10 µM, stronger effect = higher value
row,Structure (SMILES),inhibition
1,O=C(OC1CN2CCC1CC2)c1cccc(Cl)c1 (stereo not given),active: 86.5%
2,CN1CCCC(OC(=O)C(c2ccccc2)c2ccccc2)C1 (stereo not given),active: 91%
3,O=C(OC1CN2CCC1CC2)C12CC3CC(CC(C3)C1)C2 (stereo not given),active: 91.5%
4,O=C(OC1CN2CCC1CC2)c1ccc(Cl)cc1 (stereo not given),active: 59%
5,CN(C(=O)Cc1ccccc1)[C@@H]1CC[C@]2(CCCO2)C[C@H]1N1CCCC1,inactive: 0%
